# Laboratory results published in the supplement of paper PMC12532568.
# Counter-ions that a name gives are not always drawn. Only a part is listed here, and it is no random draw.
# System: Danio rerio larvae Tg(actc1b:ZsGreen-LC3), 3 dpf
# Assay: LC3 puncta relative area vs vehicle, with NH4Cl (autophagic flux) (log2 fold change); higher = more autophagy
# Conditions: 10 µM; treatment time 16 h; NH4Cl: + 100 mM, 4 h
# Experimental: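 Transgenic Tg(actc1b:ZsGreen-map1lc3) zebrafish larvae (2 dpf) were treated for 16 h with Tocris library compounds at 10 µM (n = 12 larvae per compound). Skeletal-muscle LC3 puncta area relative to body area was measured by high-content confocal imaging before and after 4 h of 100 mM NH4Cl (autophagic flux), normalised to vehicle (DMSO), and reported as log2 fold change.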
row,Structure (SMILES),LC3 puncta (log2)
1,N/C(=N/CCc1ccc(I)cc1)SCCCc1cnc[nH]1 [Iodophenpropit dihydrobromide],0.934
